Reference: patent US20070148124A1, “Cellulose and acrylic based polymers and the use thereof for the treatment of infectious diseases” (priority 2004, published 2007)

| Substance | Therapeutic Index (CC50/IC50) (PIV) | Therapeutic Index (CC50/IC50) (HHV-6A) | Therapeutic Index (CC50/IC50) (HHV-6B) | Therapeutic Index (CC50/IC50) (RSV A (A2)) | Therapeutic Index (CC50/IC50) (HSV2) | Therapeutic Index (CC50/IC50) (HSV1) | Therapeutic Index (CC50/IC50) (VZV) | Therapeutic Index (CC50/IC50) (Punta Toro-Adames) |
| --- | --- | --- | --- | --- | --- | --- | --- | --- |
| hydroxypropyl methylcellulose trimellitate [HPMCT] | 1 | 35 | 4 | >100 | >80 | >133 | 0 |  |
| poly styrene alt maleic acid [PSMA] |  |  |  |  |  |  |  | >100 |
